# Nrf2 inh: inhibitors of Nrf2 signaling. A549 ARE-Fluc reporter, luciferase luminescence, 18-24 h. 360,000 compounds, 2.1% hits. Potency, µM (top dose mostly 46 µM), hits mostly inhibitors. AID 504444; note: nearly all actives have a fitted effect of over 60% in size
#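 Nrf2 function is reported as luminescence of an ARE-controlled luciferase in A549 cells. Compounds were tested at several concentrations, and a CellTiter-Fluor read on the same wells flagged cytotoxicity.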
# Nrf2 ARE act: activators of Nrf2 (ARE) signaling; AREc32 ARE-luciferase reporter (MCF7-derived line), luminescence, 24 h; Potency, µM (highest dose often 46.1 µM), most hits filed as activators; 410,000 compounds, 0.31% hits; note: nearly all actives have a fitted effect of over 65% in size
#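 ARE-driven firefly luciferase activity in AREc32 cells measured after a 24 hr compound exposure at 37 deg C, using Steady-Glo reagent and a 30 min room-temperature hold.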
# ClpP mod: qHTS Assay for Activators of ClpP; ATP-dependent Clp protease proteolytic subunit (Bacillus subtilis (strain 168)), P80244; purified B. subtilis ClpP, FRET peptide cleavage, 20 min; Potency, µM (doses to about 57.5 µM); 340,000 compounds, 1.9% hits; active = well fitted falling curve with a large enough effect; inconclusive = small, poorly fitted or top-dose-only effect; inactive = no such curve, though single readings can be large or run the other way; note: the source files actives as falling curves though it sought activators and does not explain the sign; nearly all actives have a fitted effect of over 65% in size
#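 Buffer: 100 mM Tris/HCl pH8, 100 mM KCl, 0.05% low protease BSA, 2.5% glycerol, 0.01% Tween-20. ClpP 10 microg/mL final; 20 min RT; delta FRET normalized to ADEP and DMSO controls.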
# A549 tox: A549 cytotoxicity, counter-screen for Nrf2 inhibitors; A549 ARE-Fluc cells, CellTiter-Fluor viability, 18-24 h; Potency, µM (titrated, usually from 46 µM), hits mostly inhibitors; 390,000 compounds, 0.16% hits; AID 504648
#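 A549 ARE_Fluc cells in 5% FBS OPTI-MEM were exposed to compounds in concentration-response for 18-24 h at 37 deg C. Viability was read by CellTiter-Fluor fluorescence (Ex 405/Em 525) after 30 min, before the luciferase read.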
# TCR activator: T cell receptor activation; primary human leukocytes, anti-CD3, IL-2 HTRF, 48 h; AID 504894; Potency, µM (top dose mostly 9.22 µM), most hits filed as activators; 330,000 tested, under 10 active
#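 Human primary leukocytes + a-CD3 beads + cpd, 48 hr; IL-2 in supernatant by HTRF (ex 320nm / em 665nm). No co-stimulatory signal supplied.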
# miR-21 reporter: raises the signal of a miR-21 reporter | Potency, µM (highest dose often 38.3 µM) | HeLa miR-21 FLuc reporter, luciferase, 48 h | 340,000 tested, under 10 active; active = well fitted rising curve with a large enough effect; inconclusive = small, poorly fitted or top-dose-only effect; inactive = no such curve, though single readings can be large or run the other way;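 further: miR-21 action dims this reporter so a rising signal means less miR-21 action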
#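 HeLa cells endogenously expressing miR-21, stably carrying CMV-driven firefly luciferase with a downstream miR-21 binding site, 2000 cells/well. Titrations up to approximately 40 uM, 48 hours; luciferase luminescence read.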
# Hits are given with their value; i = inactive; ? = inconclusive; nt = not tested or not shown. In the library only some 3.7% were active in any assay of this set; here they are far more common. Unless noted, calls come from the whole dose curve; as a rule, active = well fitted curve in the direction sought with a large enough effect; inconclusive = small, poorly fitted or top-dose-only effect, or another doubt; inactive = no such curve, though single readings can be large; an effect the other way counts as inactive or inconclusive.
SMILES,Nrf2 inh,Nrf2 ARE act,ClpP mod,A549 tox,TCR activator,miR-21 reporter
Cc1nc(C)c(-c2ccc(SCC(=O)Nc3cccc(F)c3)nn2)s1,15µM,i,i,?,i,i
CCOc1ccc(S(=O)(=O)NC(C)(C)C)cc1-c1nc2c(C(C)(C)C)nn(C)c2c(=O)[nH]1,21µM,i,i,?,i,?
CCOc1ccc(S(N)(=O)=O)cc1-c1nc2c(C(C)(C)C)nn(C)c2c(=O)[nH]1,?,i,nt,i,i,i
Cc1cccc(C(=O)NCC(=O)OCc2cc(=O)n3nc(C4CC4)sc3n2)c1,?,i,i,i,nt,i
CC(C)[C@H](NC(=O)N1CCn2c1nc1ccccc12)C(=O)NC1CCCCC1,21µM,i,i,?,i,i
C[C@H](NC(=O)N1CCn2c1nc1ccccc12)C(=O)NC1CCCCC1,i,i,i,i,i,i
Cn1c2cc(S(C)(=O)=O)sc2c2cnn(Cc3ccccc3F)c(=O)c21,i,nt,nt,i,nt,nt
Cc1cc(OCC(=O)N2CCOCC2)cc2oc(=O)c3ccccc3c12,nt,i,7.1µM,i,i,i
Cc1ccc(OCC(=O)N2CCOCC2)cc1C,?,i,i,i,i,i
CC1(C)CC(=O)c2cc(OCC(=O)NCc3cccnc3)ccc2O1,nt,i,25µM,i,i,i
CC1(C)CC(=O)c2cc(OCC(=O)N3CCOCC3)ccc2O1,i,i,28µM,i,i,i
CCCCCCCNC(=O)COc1ccc2c(c1)C(=O)CC(C)(C)O2,i,i,28µM,i,i,i
CCc1ccc2c(c1)NC(c1ccc(C)cc1)=NC(c1cccs1)=N2,i,i,i,i,nt,i
COc1ccc(NC(=O)CN2C(=O)C(C)(C)c3ccccc32)cc1Cl,nt,i,i,i,nt,i
CC(=O)N1CCCc2cc(S(=O)(=O)N3CCC(C(=O)NCc4ccccc4Cl)CC3)ccc21,nt,i,i,i,nt,i
CC(C)COc1ccc(-c2nnc(-c3ccncc3)o2)cc1,?,i,32µM,nt,i,i
CC(C)CCc1c(O)nc(SCC(C)C)[nH]c1=O,i,i,32µM,i,i,i
Cc1ccc(S(=O)(=O)Nc2cccc3ncccc23)s1,15µM,?,i,?,i,?
Cc1ccc(S(=O)(=O)Nc2cccc3ncccc23)cc1,i,i,i,i,i,i
CN(CCOc1ccc(Cl)cc1)C(=O)c1ccccc1SCC(=O)N1CCCC1,13µM,i,i,i,i,nt
COc1ccccc1-c1c(C)c(C)nc(N)c1C#N,i,i,22µM,i,i,i
COc1ccccc1-c1cc(C2CC2)nc(N)c1C#N,i,i,28µM,i,nt,i
COc1ccccc1-c1c(C#N)c(N)nc2c1CCc1ccccc1-2,i,i,1.8µM,i,i,i
CCc1nc(N)c(C#N)c(-c2ccccc2OC)c1C,nt,i,28µM,i,i,i
Cc1nc(N)c(C#N)c(-c2ccccc2Cl)c1C,i,i,?,i,i,i
SMILES,Nrf2 inh,Nrf2 ARE act,ClpP mod,A549 tox,TCR activator,miR-21 reporter
O=C(CNC(=O)c1ccccc1)NCC(O)c1ccc([N+](=O)[O-])cc1 (stereo unspecified),i,i,nt,i,i,i
CC(=O)N/C(=C/c1ccccc1)c1ccncc1,nt,nt,i,nt,nt,nt
CCCNC1(C(N)=O)CCN(Cc2ccccc2)CC1,i,i,nt,i,i,nt
COCCSc1ccccc1C(=O)Nc1ccc(S(=O)(=O)N2CCOCC2)cc1,i,i,i,i,i,i
COc1cc(Nc2nc(SCc3ccc(Cl)cc3)nc3ccccc23)cc(OC)c1,nt,i,35µM,i,nt,i
COc1cc(Nc2nc(SCc3cccc(Cl)c3)nc3ccccc23)cc(OC)c1,nt,i,32µM,i,nt,i
COc1cc(Nc2nc(SCc3ccccc3Cl)nc3ccccc23)cc(OC)c1,nt,i,28µM,i,nt,i
COc1cc(OC)cc(-c2nnc(NC(=O)CCS(=O)(=O)c3ccc(F)cc3)o2)c1,21µM,?,i,?,i,nt
COc1ccc(OC)c2sc(NC(=O)CCSc3ccccc3)nc12,i,i,?,i,i,i
COc1cc(-c2nnc(NC(=O)CCS(=O)(=O)c3ccccc3)o2)cc(OC)c1OC,i,11µM,i,i,nt,nt
COc1cc(-c2nnc(NC(=O)CCS(=O)(=O)c3ccc(F)cc3)o2)cc(OC)c1OC,i,i,i,i,i,nt
COc1ccc(OC)c2sc(NC(=O)CCS(=O)(=O)c3ccccc3)nc12,?,5µM,i,i,i,nt
O=C(C[C@@H]1CC[C@@H]2[C@H](COC[C@H](O)CN2S(=O)(=O)c2ccccc2)O1)Nc1ccccc1,nt,nt,i,nt,nt,nt
O=C(NN=C1CCC(c2ccccc2)CC1)c1ccccc1-n1cccc1 (stereo unspecified),i,i,32µM,i,i,i
CC1CCC(=NNC(=O)c2ccccc2-n2cccc2)CC1 (stereo unspecified),i,i,nt,i,i,nt
CCOC(=O)[C@H]1[C@H]2COc3ccc(C)cc3[C@@H]2N2C(=O)c3cc(Br)ccc3NC(=O)[C@@]12C,i,i,i,i,i,nt
CCOC(=O)N1CCN(CC(=O)Nc2ccc(Oc3ccccc3)cc2)CC1,?,i,28µM,i,i,i
O=C1C2C(c3ccccc3)=NN(c3ccccc3)C2C(=O)N1c1ccccc1 (stereo unspecified),i,i,28µM,i,i,i
O=C1[C@H]2C(c3ccccc3)=NN(c3ccccc3)[C@H]2C(=O)N1c1ccccc1,?,i,i,i,i,i
CC(C)Oc1ccc(N2CC(C(=O)Nc3ccccc3C(=O)NC3CC3)CC2=O)cc1 (stereo unspecified),i,i,nt,i,i,nt
Cc1ccc(CNC(=O)c2ccc3nc4[nH]c5ccccc5c4nc3c2)cc1,nt,nt,nt,nt,i,i
COc1ccccc1CNC(=O)c1ccc2nc3[nH]c4ccccc4c3nc2c1,15µM,i,i,?,i,i
Cc1cccc(CN2CCC(CNC(=O)c3c(C)oc4ncnc(N5CCCCC5)c34)CC2)c1,?,i,i,i,nt,i
O=C(O)c1c[nH]c2c(C(F)(F)F)cccc2c1=O,i,i,i,i,i,i
O=c1cc[nH]c2c(C(F)(F)F)cccc12,i,i,28µM,i,i,i
CCN1CCN(c2nnc(-c3ccccc3)c3ccccc23)CC1,i,i,i,i,i,i
CCN1CCN(c2cc3c(nn2)Oc2ccccc2N3C)CC1,i,i,28µM,i,i,i
CC(C)(C)N(Cc1ccccc1)C(=O)COC(=O)C1CC(=O)N(Cc2ccccc2)C1 (stereo unspecified),i,i,nt,i,i,nt
OC(c1ccco1)c1nc(-c2cccs2)cs1 (stereo unspecified),nt,?,i,nt,nt,nt

# Screening data as filed in PubChem BioAssay.
